Two sequences from patent US8546524B2, “Smoothened polypeptides and methods of use” (The United States of America, as represented by the …, priority 2006, dated 2013) can be followed below.

The nature of the series: Solubility / precipitation in medium (stated).

In the case of WFVVLTYAWHTSFKAL [SMOi2-15], the “solubility” value is “poor solubility”. To VWFVVLTYAWHTSFKAL [SMOi2-14] belongs “poor solubility”.
